# Target: IN-GCN2 interaction (6xHis-IN / GST-GCN2) (UniProt P04585+Q9P2K8)
# Amino acid sequences for entries named in this document (tags omitted). Residues count along the entry.
# UniProt Q9P2K8, 192-1024: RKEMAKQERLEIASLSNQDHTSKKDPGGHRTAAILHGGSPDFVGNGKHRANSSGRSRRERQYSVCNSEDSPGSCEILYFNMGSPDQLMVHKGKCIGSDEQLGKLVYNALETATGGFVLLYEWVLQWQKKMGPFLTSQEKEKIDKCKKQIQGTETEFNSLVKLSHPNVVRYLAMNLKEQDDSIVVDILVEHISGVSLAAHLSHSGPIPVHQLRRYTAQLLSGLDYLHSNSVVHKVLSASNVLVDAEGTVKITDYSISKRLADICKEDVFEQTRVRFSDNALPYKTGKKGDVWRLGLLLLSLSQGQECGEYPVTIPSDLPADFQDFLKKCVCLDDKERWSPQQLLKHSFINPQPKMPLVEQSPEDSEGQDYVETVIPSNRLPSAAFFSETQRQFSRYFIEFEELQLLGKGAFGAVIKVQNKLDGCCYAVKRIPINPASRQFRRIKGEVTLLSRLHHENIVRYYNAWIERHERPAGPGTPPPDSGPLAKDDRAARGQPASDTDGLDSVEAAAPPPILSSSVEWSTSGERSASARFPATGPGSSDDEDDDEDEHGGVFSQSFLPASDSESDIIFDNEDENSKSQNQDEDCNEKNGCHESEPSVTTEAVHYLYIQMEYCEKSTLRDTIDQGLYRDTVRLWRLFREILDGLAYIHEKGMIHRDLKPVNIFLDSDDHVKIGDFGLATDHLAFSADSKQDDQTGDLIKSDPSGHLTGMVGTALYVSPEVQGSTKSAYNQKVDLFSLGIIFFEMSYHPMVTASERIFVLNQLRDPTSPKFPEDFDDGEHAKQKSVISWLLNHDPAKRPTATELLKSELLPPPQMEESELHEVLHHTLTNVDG
# Type: binding, HIV-1 IN; human GCN2
# Conditions: screen, single dose 100 µM, single replicate; residual AlphaLISA signal normalized to DMSO control
compound,measurement,value
OC[C@H]1O[C@@H](n2cnc3c2NC=NC[C@H]3O)C[C@@H]1O [NSC218321],IN-GCN2 interaction (%),82.71%
